The chains behind the UniProt entries cited, without tags or fusion partners.
UniProt P31645, whole entry: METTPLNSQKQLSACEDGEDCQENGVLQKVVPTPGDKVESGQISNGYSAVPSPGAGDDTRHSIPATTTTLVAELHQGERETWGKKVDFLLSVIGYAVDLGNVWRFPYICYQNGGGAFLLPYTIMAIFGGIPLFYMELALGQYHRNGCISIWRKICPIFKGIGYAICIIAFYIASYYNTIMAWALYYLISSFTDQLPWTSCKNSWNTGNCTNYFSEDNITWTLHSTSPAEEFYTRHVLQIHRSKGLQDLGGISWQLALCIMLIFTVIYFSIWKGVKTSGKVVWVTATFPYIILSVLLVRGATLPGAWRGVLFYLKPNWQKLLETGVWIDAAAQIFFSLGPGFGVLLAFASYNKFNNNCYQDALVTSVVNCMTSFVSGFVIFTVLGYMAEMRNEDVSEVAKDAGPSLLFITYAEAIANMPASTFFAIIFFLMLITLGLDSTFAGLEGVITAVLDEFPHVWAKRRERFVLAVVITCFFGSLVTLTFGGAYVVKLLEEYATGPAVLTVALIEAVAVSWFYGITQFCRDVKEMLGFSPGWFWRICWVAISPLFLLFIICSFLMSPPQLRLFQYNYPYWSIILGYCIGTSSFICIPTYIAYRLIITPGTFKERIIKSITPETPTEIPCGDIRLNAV

In ChEMBL document CHEMBL1155007, “Synthesis and monoamine transporter binding properties of 2beta-[3'-(substituted benzyl)isoxazol-5-yl]- and 2beta-[3'-methyl-4'-(substituted phenyl)isoxazol-5-yl]-3beta-(substituted phenyl)tropanes” (Bioorg Med Chem, 2008):

Molecular target: Sodium-dependent serotonin transporter (Homo sapiens, UniProt P31645)
Test: Displacement of [3H]paroxetine from 5HTT
In short: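 Competitive radioligand binding at the serotonin transporter, with 0.2 nM [3H]paroxetine as the final radioligand concentration. Compounds were tested as HCl salts. Values are means ± standard error of three or four experiments, each run in duplicate.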

COC(=O)[C@@H]1C2CC[C@H](C[C@@H]1c1ccccc1)N2C
Ki: 182 nM
